Laboratory results taken from ChEMBL document CHEMBL4396878, “Mechanisms of Specific versus Nonspecific Interactions of Aggregation-Prone Inhibitors and Attenuators” (J Med Chem, 2019).
The source made the active and inactive calls. No cut-off for these calls is given here.

Legend:
[1] = molecular target: T1, Rap guanine nucleotide exchange factor 3 (Homo sapiens) (UniProt O95398); assay: Ratio of apparent Kd for binding affinity to human EPAC1 cAMP binding domain (149 to 318 residues) in presence of human serum albumin to apparent Kd for binding affinity to human EPAC1 cAMP binding domain (149 to 318 residues) in absence of human serum albumin
T1 sequence (whole entry): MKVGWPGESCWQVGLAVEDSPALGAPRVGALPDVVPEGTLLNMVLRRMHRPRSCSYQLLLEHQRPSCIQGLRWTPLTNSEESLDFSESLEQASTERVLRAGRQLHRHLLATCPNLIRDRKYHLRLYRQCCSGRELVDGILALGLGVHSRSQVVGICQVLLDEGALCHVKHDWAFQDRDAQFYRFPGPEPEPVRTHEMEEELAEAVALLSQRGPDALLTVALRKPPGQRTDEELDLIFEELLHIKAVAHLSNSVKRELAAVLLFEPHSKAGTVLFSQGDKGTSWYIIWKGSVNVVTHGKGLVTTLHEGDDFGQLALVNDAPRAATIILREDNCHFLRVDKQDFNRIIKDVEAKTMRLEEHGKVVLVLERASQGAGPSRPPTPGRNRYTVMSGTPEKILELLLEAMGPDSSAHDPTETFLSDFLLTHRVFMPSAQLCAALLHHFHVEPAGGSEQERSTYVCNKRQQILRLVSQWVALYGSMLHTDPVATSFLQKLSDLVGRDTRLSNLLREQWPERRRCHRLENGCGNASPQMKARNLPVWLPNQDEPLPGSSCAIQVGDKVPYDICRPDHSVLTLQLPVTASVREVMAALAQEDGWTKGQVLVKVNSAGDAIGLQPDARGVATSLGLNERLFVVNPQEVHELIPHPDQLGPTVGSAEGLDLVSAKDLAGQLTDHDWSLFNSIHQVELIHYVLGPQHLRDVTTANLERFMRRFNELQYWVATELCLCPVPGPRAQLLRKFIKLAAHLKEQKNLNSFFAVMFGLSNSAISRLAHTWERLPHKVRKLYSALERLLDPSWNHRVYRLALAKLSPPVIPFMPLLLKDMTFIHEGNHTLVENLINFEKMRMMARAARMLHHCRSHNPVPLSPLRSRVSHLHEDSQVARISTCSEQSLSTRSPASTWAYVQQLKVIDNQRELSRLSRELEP

[2] = molecular target: T1, Rap guanine nucleotide exchange factor 3 (Homo sapiens); assay: Binding affinity to human EPAC1 cAMP binding domain (149 to 318 residues) assessed as intensity loss using aggregate form of compound by [15N-1H]HSQC spectroscopic analysis

C[C@@H]1CCc2c(cc(Br)c(F)c2Br)N1C=O
Ratio [1]: 5 to 10
Activity [2]: inactive
